The results in this text go back to patent US20220287970A1, “COMPOSITION FOR INHIBITING SAPONIN-INDUCED HEMOLYSIS, CONTAINING CATIONIC LIPOSOME” (priority 2020, published 2022).

The data set relates to red blood cells (RBCs). Kind of data set: Hemolysis analysis: steroidal and triterpenoid saponins (Example 5). The data set is classed as cell-based. The conditions noted are these: saponin alone. As to the method:
1) The liposome, saponin, sucrose in a HEPES buffer (pH 7.4), and distilled water were placed in a 96-well plate, as shown in Tables 14 and 15 below.
2) The reaction was carried out at room temperature and 300 rpm for 30 minutes using an orbital shaker.
3) 3 mL of RBCs were suspended in 10 mL of PBS and centrifuged at room temperature and 1500 rpm for 5 minutes, after which the supernatant was removed.
4) Steps 2) and 3) were repeated three times, and thus the RBCs were washed.
5) The RBC pellet was suspended in 1 mL of PBS and diluted to 1/100, followed by cell counting.
6) The RBCs were diluted to 1.5×10^9 cells/mL using PBS and dispensed at 3×10^7 cells/20 μL/well in a 96-well plate treated with the test material of 2) above.
7) The reaction was carried out at room temperature and 300 rpm for 1 hour using an orbital shaker.
8) The 96-well plate was centrifuged at room temperature and 1500 rpm for 5 minutes.
9) 50 μL of the supernatant was transferred to a new 96-well plate, and the absorbance was then measured at 415 nm.
10) Hemolysis (%) was calculated using the following equation.
Hemolysis (%)=(OD of sample OD of 0% hemolysis)/(0D of 100% hemolysis−OD of 0% hemolysis)×100

As for aescin, the “amount of saponin at which 60% hemolysis was observed” value is 2.5 µg and the “amount of saponin at which 100% hemolysis was observed” value turned out to be 5 µg.
